In one experiment the test system is BaF3/Bcr-Abl cells. The experiment is described as follows: Apoptosis by Annexin-V staining, BaF3/Bcr-Abl cells. In kind it is cell-based, mouse. The settings on record: 20 nM dasatinib, 48 hours.
The next experiment deals with Bcr-AblT315I. Nature of the experiment: Bcr-Abl autophosphorylation, BaF3/Bcr-AblT315I cells. In kind it is cell-based, mouse. Particulars: data not shown.
In a further experiment the test system is BaF3/Bcr-AblT315I cells. The settings on record: dasatinib 2.0 μM.
A further experiment has as its system Bcr-AblE255K. Nature of the experiment: Bcr-Abl auto-phosphorylation (immunoprecipitation/immunoblot), BaF3/Bcr-AblE255K cells. In kind it is cell-based, mouse. The settings on record: 20 nM dasatinib, 24 hours; compared with 5.0 nM on unmutated Bcr-Abl. Background: In western blotting, separated proteins are transferred to a membrane and probed.
The subject of another experiment is unmutated Bcr-Abl. Nature of the experiment: Bcr-Abl auto-phosphorylation (immunoprecipitation/immunoblot), BaF3/Bcr-Abl cells. In kind it is cell-based, mouse. Particulars: 5.0 nM dasatinib, 24 hours.

As for `Cc1nc(Nc2ncc(C(=O)Nc3c(C)cccc3Cl)s2)cc(N2CCN(CCO)CC2)n1` [dasatinib, N-(2-chloro-6-methylphenyl)-2-[[6-[4-(2-hydroxyethyl)-1-piperazinyl]-2-methyl-4-pyrimidinyl]amino]-5-thiazolecarboxamide], the “apoptosis of BaF3/Bcr-Abl cells” value in the experiment on BaF3/Bcr-Abl cells is given as “more than 70%”. Also, the “autophosphorylation of Bcr-Abl in BaF3/Bcr-AblT315I cells” value with Bcr-AblT315I was “did not appreciably inhibit”. The “sensitivity of BaF3/Bcr-AblT315I cells to dasatinib-induced apoptosis” value in the experiment with BaF3/Bcr-AblT315I cells was “resistant”. Also, the “auto-phosphorylation of Bcr-AblE255K” value with Bcr-AblE255K is given as “achieved a similar effect”. In addition, the “auto-phosphorylation of the unmutated Bcr-Abl” value in the experiment with unmutated Bcr-Abl is “markedly inhibited”.

Source of the values: US7799788B2, “Method of treating chronic myelogenous leukemia cells” (University of South Florida, priority 2006, dated 2010).
